The record followed here is patent US20040209914A1, “Aromatic sulfone hydroxamic acids and their use as protease inhibitors” (priority 2000, published 2004).

Sequences of proteins named here, by UniProt entry; tags and fusion partners are left off. Residues count along the entry.
UniProt P03956, 100-469 limits assumed: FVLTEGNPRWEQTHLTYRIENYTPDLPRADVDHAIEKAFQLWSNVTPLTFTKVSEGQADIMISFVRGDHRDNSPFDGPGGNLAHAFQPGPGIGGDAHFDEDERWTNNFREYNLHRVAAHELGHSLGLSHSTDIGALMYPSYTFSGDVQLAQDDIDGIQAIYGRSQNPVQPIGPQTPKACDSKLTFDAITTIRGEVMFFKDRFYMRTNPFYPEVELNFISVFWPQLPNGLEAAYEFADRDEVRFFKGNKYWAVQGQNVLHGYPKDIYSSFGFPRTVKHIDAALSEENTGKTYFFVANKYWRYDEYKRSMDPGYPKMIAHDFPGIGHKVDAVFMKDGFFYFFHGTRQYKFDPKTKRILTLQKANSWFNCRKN
UniProt P08253, 110-660 limits assumed: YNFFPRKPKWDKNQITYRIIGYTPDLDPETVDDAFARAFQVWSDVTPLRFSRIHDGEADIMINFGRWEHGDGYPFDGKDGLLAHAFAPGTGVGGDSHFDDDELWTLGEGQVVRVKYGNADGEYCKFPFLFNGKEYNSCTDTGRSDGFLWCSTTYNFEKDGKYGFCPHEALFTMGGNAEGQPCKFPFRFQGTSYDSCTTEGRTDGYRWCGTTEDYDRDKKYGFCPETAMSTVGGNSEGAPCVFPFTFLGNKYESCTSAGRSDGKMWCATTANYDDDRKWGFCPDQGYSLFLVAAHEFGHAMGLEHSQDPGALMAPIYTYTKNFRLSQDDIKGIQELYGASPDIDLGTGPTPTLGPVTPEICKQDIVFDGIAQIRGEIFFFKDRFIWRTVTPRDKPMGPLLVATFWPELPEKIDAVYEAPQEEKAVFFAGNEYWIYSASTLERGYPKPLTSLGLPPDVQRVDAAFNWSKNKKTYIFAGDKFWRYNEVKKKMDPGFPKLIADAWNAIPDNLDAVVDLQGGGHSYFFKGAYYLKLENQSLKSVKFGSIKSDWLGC

Like-named read-outs stand apart in the source and are kept apart here.

By IC50 is commonly meant the concentration that inhibits the measured activity by half.

Experiment [1] concerns the target Recombinant human MMP-1 (Homo sapiens, UniProt P03956). The following applies: read-out: MMP-1 IC50, fluorogenic MCA-peptide substrate, pH 7.5, room temperature.
Experiment [2] has as its target Recombinant human MMP-2 (Homo sapiens, UniProt P08253). The following applies: read-out: MMP-2 IC50, fluorogenic MCA-peptide substrate, pH 7.5, room temperature.
The target of experiment [3] is Recombinant human MMP-13 (Homo sapiens, UniProt P45452). The following applies: read-out: MMP-13 IC50, fluorogenic MCA-peptide substrate, pH 7.5, room temperature.

For `O=C(c1ccc(Br)s1)C1CCN(c2ccc(S(=O)(=O)C3(C(=O)NO)CCN(C4CC4)CC3)cc2)CC1`, the figures for the IC50 in experiment [1] (tested form: HCl), in experiment [2] (tested form: HCl) and in experiment [3] (tested form: HCl) were above 10000 nM, 8.5 nM and 0.2 nM, respectively.
Turning to `CCN1CCC(C(=O)NO)(S(=O)(=O)c2ccc(N3CCC(C(=O)c4ccc5ccccc5c4)CC3)cc2)CC1`, the IC50 is above 10000 nM in experiment [1] (tested form: HCl), 405 nM in experiment [2] (tested form: HCl) and 1.9 nM in experiment [3] (tested form: HCl).
With `CS(=O)(=O)N1CCC(C(=O)NO)(S(=O)(=O)c2ccc(N3CCC(C(=O)c4ccc(Cl)cc4)CC3)cc2)CC1`, the IC50 is above 10000 nM in experiment [1], 103 nM in experiment [2] and 1.3 nM in experiment [3].
On to `C#CCN1CCC(C(=O)NO)(S(=O)(=O)c2ccc(N3CCC(C(=O)c4ccc(Cl)c(Cl)c4)CC3)cc2)CC1`, for which the results for the IC50 in experiment [1] (tested form: HCl), in experiment [2] (tested form: HCl) and in experiment [3] (tested form: HCl) were above 10000 nM, 37.9 nM and 0.7 nM, respectively.
The like results for `CCc1ccc(C(=O)C2CCN(c3ccc(S(=O)(=O)C4(C(=O)NO)CCN(CCOC)CC4)cc3)CC2)s1` were, in that order, above 10000 nM, 40.8 nM and 0.2 nM.
`COCCN1CCC(C(=O)NO)(S(=O)(=O)c2ccc(N3CCC(C(=O)c4ccc(CC(C)C)s4)CC3)cc2)CC1`: the IC50 in experiment [2] (tested form: 2 HCl) was 87.5 nM; in experiment [3] (tested form: 2 HCl) it was 1 nM.
As to `CCCc1ccc(C(=O)C2CCN(c3ccc(S(=O)(=O)C4(C(=O)NO)CCN(CCOC)CC4)cc3)CC2)s1`, the IC50 was above 10000 nM in experiment [1] (tested form: HCl), 72.9 nM in experiment [2] (tested form: HCl) and 0.4 nM in experiment [3] (tested form: HCl).
In the case of `CCN1CCC(C(=O)NO)(S(=O)(=O)c2ccc(N3CCC(C(=O)c4ccc(C)c(C)c4)CC3)cc2)CC1`, the IC50 was above 10000 nM in experiment [1] (tested form: HCl), 1060 nM in experiment [2] (tested form: HCl) and 2.6 nM in experiment [3] (tested form: HCl).
For `CCN1CCC(C(=O)NO)(S(=O)(=O)c2ccc(N3CCC(C(=O)c4ccc(Cl)cc4)CC3)cc2)CC1`, the 50% inhibitory concentration (IC50) in experiment [1] (tested form: HCl) is above 10000 nM; in experiment [2] (tested form: HCl), 98.7 nM; in experiment [3] (tested form: HCl), 0.4 nM.
Turning to `CN(C)CCCN1CCN(C(=O)C2CCN(c3ccc(S(=O)(=O)C4(C(=O)NO)CCOCC4)cc3)CC2)CC1`, the IC50 in experiment [1] (tested form: TFA) was above 10000 nM; in experiment [2] (tested form: TFA), 7000 nM; in experiment [3] (tested form: TFA), 70 nM.
`COCCN1CCC(C(=O)NO)(S(=O)(=O)c2ccc(N3CCC(C(=O)c4ccc(CC5CC5)cc4)CC3)cc2)CC1`: the IC50 is above 10000 nM in experiment [1] (tested form: HCl), 56.4 nM in experiment [2] (tested form: HCl) and 0.4 nM in experiment [3] (tested form: HCl).
Take `CN(C)c1ccc(C(=O)C2CCN(c3ccc(S(=O)(=O)C4(C(=O)NO)CCN(S(C)(=O)=O)CC4)cc3)CC2)cc1`: the IC50 in experiment [1] is above 10000 nM; in experiment [2] it was 3230 nM; in experiment [3], 3.4 nM.
As to `COCCN1CCC(C(=O)NO)(S(=O)(=O)c2ccc(N3CCC(C(=O)c4ccc(N(C)C)c(Cl)c4)CC3)cc2)CC1`, the IC50 is above 10000 nM in experiment [1] (tested form: HCl), 360 nM in experiment [2] (tested form: HCl) and 1.5 nM in experiment [3] (tested form: HCl).
